This is an account of results in patent US20260053861A1, “CELL COMPOSITIONS AND METHODS OF USING THE SAME” (THE REGENTS OF THE UNIVERSITY OF CALIFORNIA, priority 2022, published 2026).

The subject of this assay is hPSC-SCs. Conditions: HTS viability of hPSC-SCs in the presence of 30 mM glucose; Prestwick library; Table S4.

For `C[C@@H](O)[C@H]1C(=O)N2C(C(=O)O)=C(S[C@@H]3CN[C@H](C(=O)N(C)C)C3)[C@H](C)[C@H]12` [Meropenem], the z.score.t is reported as −0.3313.
